Test results taken from US20220177511A1, “SERIES OF HALOGENATED TETRACYCLIC TRITERPENE DERIVATIVES AND THEIR PREPARATION AND APPLICATION” (SHANGHAI KING-X BIOTECH CO., LTD, priority 2019, published 2022).

Test: Solubility test in water and FaSSIF
Assay type: physicochemical
Settings: 37° C., up to 24 hours

“(S)-1-(((2aR,3R,4S,5aS,5bS,7S,7aR,11aR,12aS)-9,9-difluoro-4-hydroxy-3-((2S,5S)-5-(2-hydroxypropan-2-yl)-2-methyltetrahydrofuran-2-yl)-2a,5a,8,8-tetramethyltetradecahydro-1H,12H-cyclopenta[a]cyclopropa[e]phenanthren-7-yl)oxy)-1-oxopropan-2-aminium Chloride [Compound 2-17]” gave a Solubility (FaSSIF (pH 6.5)) of 2390 µg/mL and a Solubility (Water) of 880 µg/mL.

Work on “2-(((2aR,3R,4S,5aS,5bS,7S,7aR,11aR,12aS)-9,9-difluoro-4-hydroxy-3-((2S,5S)-5-(2-hydroxypropan-2-yl)-2-methyltetrahydrofuran-2-yl)-2a,5a,8,8-tetramethyltetradecahydro-1H,12H-cyclopenta[a]cyclopropa[e]phenanthren-7-yl)oxy)-N-methyl-2-oxoethan-1-aminium Chloride [Compound 2-6]” yielded a Solubility (FaSSIF (pH 6.5)) of 1690 µg/mL and a Solubility (Water) of 890 µg/mL.

“1-(2-(((2aR,3R,4S,5aS,5bS,7S,7aR,11aR,12aS)-9,9-difluoro-4-hydroxy-3-((2S,5S)-5-(2-hydroxypropan-2-yl)-2-methyltetrahydrofuran-2-yl)-2a,5a,8,8-tetramethyltetradecahydro-1H,12H-cyclopenta[a]cyclopropa[e]phenanthren-7-yl)oxy)-2-oxoethyl)guanidinium Bromide [Compound 2-5]” showed a Solubility (FaSSIF (pH 6.5)) of 2410 µg/mL and a Solubility (Water) of 1310 µg/mL.

For “(S)-6-((2-(((2aR,3R,4S,5aS,5bS,7S,7aR,11aR,12aS)-9,9-difluoro-4-hydroxy-3-((2S,5S)-5-(2-hydroxypropan-2-yl)-2-methyltetrahydrofuran-2-yl)-2a,5a,8,8-tetramethyl tetradecahydro-1H,12H-cyclopenta[a]cyclopropa[e]phenanthren-7-yl)oxy)-2-oxoethyl)amino)-6-oxohexane-1,5-diaminium Bromide [Compound 2-30]”, the Solubility (FaSSIF (pH 6.5)) was 5950 µg/mL and the Solubility (Water) was 1900 µg/mL.

Compound “(R)-2-(2-(((2aR,3R,4S,5aS,5bS,7S,7aR,11aR,12aS)-9,9-difluoro-4-hydroxy-3-((2S,5S)-5-(2-hydroxypropan-2-yl)-2-methyltetrahydrofuran-2-yl)-2a,5a,8,8-tetramethyltetradecahydro-1H,12H-cyclopenta[a]cyclopropa[e]phenanthren-7-yl)oxy)-2-oxoethyl)pyrrolidin-1-ium Chloride [Compound 2-4]” has a Solubility (FaSSIF (pH 6.5)) of 2500 µg/mL and a Solubility (Water) of 1220 µg/mL.

For “3-(((2aR,3R,4S,5aS,5bS,7S,7aR,11aR,12aS)-9,9-difluoro-4-hydroxy-3-((2S,5S)-5-(2-hydroxypropan-2-yl)-2-methyltetrahydrofuran-2-yl)-2a,5a,8,8-tetramethyltetradecahydro-1H,12H-cyclopenta[a]cyclopropa[e]phenanthren-7-yl)oxy)-3-oxopropan-1-aminium Chloride [Compound 2-1]”, the Solubility (FaSSIF (pH 6.5)) was 2180 µg/mL and the Solubility (Water) was 1130 µg/mL.

For “2-(2-(((2aR,3R,4S,5aS,5bS,7S,7aR,11aR,12aS)-9,9-difluoro-4-hydroxy-3-((2S,5S)-5-(2-hydroxypropan-2-yl)-2-methyltetrahydrofuran-2-yl)-2a,5a,8,8-tetramethyltetradecahydro-1H,12H-cyclopenta[a]cyclopropa[e]phenanthren-7-yl)oxy)-2-oxoethoxy)ethan-1-aminium Chloride [Compound 2-7]”, the Solubility (FaSSIF (pH 6.5)) was 1230 µg/mL and the Solubility (Water) was 790 µg/mL.

In the case of `Br.CC(C)(O)C1CCC(C)(C2C(O)CC3(C)C4CC(OC(=O)CNC(=O)C(N)CS)C5C(C)(C)C(F)(F)CCC56CC46CCC23C)O1` [Compound 2-32, (R)-1-((2-(((2aR,3R,4S,5aS,5bS,7S,7aR,11aR,12aS)-9,9-difluoro-4-hydroxy-3-((2S,5S)-5-(2-hydroxypropan-2-yl)-2-methyltetrahydrofuran-2-yl)-2a,5a,8,8-tetramethyltetradecahydro-1H,12H-cyclopenta[a]cyclopropa[e]phenanthren-7-yl)oxy)-2-oxoethyl)amino)-3-mercapto-1-oxopropan-2-aminium bromide], the Solubility (Water) is reported as 1310 µg/mL.
